Active and inactive are the calls of the source. The calls are words filed in the database; no cut-off is given here.
Key:
Acinetobacter baumannii [1] = test: Antibacterial activity against Acinetobacter baumannii ATCC 17978 at up to 4 ug/ml after 1 hr; type: functional
Acinetobacter baumannii [2] = test: Antibacterial activity against Acinetobacter baumannii AB0057 assessed as bacterial survival at pH 5.5 after 1 hr; type: functional, organism-based
Acinetobacter baumannii [3] = test: Antibacterial activity against Acinetobacter baumannii AB0057 assessed as bacterial survival at pH 7.7 after 1 hr; type: functional, organism-based
Acinetobacter baumannii [4] = test: Antibacterial activity against Acinetobacter baumannii ATCC 17978 assessed as bacterial survival at pH 5.5 after 1 hr; type: functional
Acinetobacter baumannii [5] = test: Antibacterial activity against Acinetobacter baumannii AB0057 at up to 4 ug/ml; type: functional, organism-based
Acinetobacter baumannii [6] = test: Antibacterial activity against Acinetobacter baumannii ATCC 17978 assessed as bacterial survival at pH 7.7 after 1 hr; type: functional
Acinetobacter baumannii [7] = test: Antibacterial activity against Acinetobacter baumannii AB0057 assessed as bacterial survival at 1.4 ug/ml after 1 hr; type: functional, organism-based
Acinetobacter baumannii [8] = test: Antibacterial activity against Acinetobacter baumannii AB0057 after 1 hr; type: functional, organism-based
Acinetobacter baumannii [9] = test: Antibacterial activity against Acinetobacter baumannii AB0057 assessed as bacterial population at 1.4 ug/ml; type: functional, organism-based
Acinetobacter baumannii [10] = test: Antibacterial activity against Acinetobacter baumannii AB0057 assessed as bacterial survival after 1 hr in absence of ferric chloride; type: functional, organism-based
Acinetobacter baumannii [11] = test: Antibacterial activity against Acinetobacter baumannii AB0057 assessed as bacterial survival after 1 hr in presence of ferric chloride; type: functional, organism-based
Acinetobacter baumannii [12] = test: Antibacterial activity against Acinetobacter baumannii ATCC 17978 assessed as bacterial survival after 1 hr in presence of ferric chloride; type: functional
Acinetobacter baumannii [13] = test: Antibacterial activity against Acinetobacter baumannii ATCC 17978 assessed as bacterial survival after 1 hr in absence of ferric chloride; type: functional

COLISTIN SULFATE
Activity (Acinetobacter baumannii [1]): Active | Survival (Acinetobacter baumannii [2]): 70% | Survival (Acinetobacter baumannii [3]): < 1% | Survival (Acinetobacter baumannii [4]): 75% | Activity (Acinetobacter baumannii [5]): tde | Survival (Acinetobacter baumannii [6]): < 1% | Activity (Acinetobacter baumannii [7]): 1% | Activity (Acinetobacter baumannii [8]): Dose-dependent effect | Activity (Acinetobacter baumannii [9]): < 1e-05% | Survival (Acinetobacter baumannii [10]): 1.6% | Survival (Acinetobacter baumannii [11]): 16% | Survival (Acinetobacter baumannii [12]): 56% | Survival (Acinetobacter baumannii [13]): 0.2%

From ChEMBL document CHEMBL1687735, “Resistance to colistin in Acinetobacter baumannii associated with mutations in the PmrAB two-component system” (Antimicrob Agents Chemother, 2009)
